The values that follow come from PubChem BioAssay AID743214 (The Scripps Research Institute Molecular Screening Center, 2013).

Chains of the proteins cited; added tags and fusions are not shown. Residues count along the entry.
UniProt P78536, 215-824 limits assumed: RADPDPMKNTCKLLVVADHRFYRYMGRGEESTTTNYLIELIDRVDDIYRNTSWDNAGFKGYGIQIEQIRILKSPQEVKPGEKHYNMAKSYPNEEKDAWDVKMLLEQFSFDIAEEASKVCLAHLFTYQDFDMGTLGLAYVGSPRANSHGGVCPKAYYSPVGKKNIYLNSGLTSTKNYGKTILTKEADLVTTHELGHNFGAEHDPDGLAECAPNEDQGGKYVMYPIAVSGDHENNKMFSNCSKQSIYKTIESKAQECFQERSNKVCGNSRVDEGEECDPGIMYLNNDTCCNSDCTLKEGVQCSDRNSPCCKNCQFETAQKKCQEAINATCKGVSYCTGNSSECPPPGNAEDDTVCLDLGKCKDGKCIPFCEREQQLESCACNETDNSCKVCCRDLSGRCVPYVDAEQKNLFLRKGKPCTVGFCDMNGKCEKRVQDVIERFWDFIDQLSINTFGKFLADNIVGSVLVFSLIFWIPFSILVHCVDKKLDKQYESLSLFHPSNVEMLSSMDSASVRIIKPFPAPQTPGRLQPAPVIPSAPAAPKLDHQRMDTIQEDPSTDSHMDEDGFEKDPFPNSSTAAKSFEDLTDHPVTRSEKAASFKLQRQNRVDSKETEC

The entries are a selection whose mix differs from that of the whole data set. Activity calls are given as the source filed them.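 Rule for the calls: active = mean triplicate inhibition above the solvent-only control wells' mean plus 3 SD (cut at about 12% in these data); inactive = the rest.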

This experiment has as its target Disintegrin and metalloproteinase domain-containing protein 17 (Homo sapiens) (UniProt P78536). The experiment is described as follows: inhibition of ADAM17 peptide cleavage – biochemical, QFRET, high throughput, counter-screen for ADAM10 exosite inhibitor project (AID 743214).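 Note: 0% = DMSO wells and 100% = marimastat wells.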 The settings on record: EDANS fluorescence, at 6.95 µM, stronger effect = higher value. Summed up: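 Assay system – ADAM17 protease with quenched-FRET EDANS/DABCYL peptide substrate · Amount – ADAM17 2X stock, 20 nM · Schedule – 30 min compound–enzyme preincubation, then 3 h reaction, both 25 °C · Measured by – EDANS fluorescence 359/460 nm · Read-out – percent inhibition of ADAM17 cleavage · Replicates – each compound tested in triplicate wells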
Take `CCCCn1nnnc1C(c1cccc2ccccc12)N1CCC(n2c(=O)[nH]c3ccccc32)CC1` (stereo unspecified): the inhibition was inactive: 2.81%.

In general, inhibition refers to the percentage by which the read-out fell short of the control.
